# PINK1 expr mod: changes PINK1 expression; PINK1 immunofluorescence, high-content cytometry, 24 h; Potency, µM (titrated, usually from 76.6 µM), actives largely listed as activators; 410,000 tested, 0.2% active; active = well fitted activation curve with a large enough effect; inconclusive = small, poorly fitted or top-dose-only effect; cell line not stated here; note: nearly all actives have a fitted effect of over 65% in size
#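 Stable cell line treated 24 h with compounds at 5 concentrations (CCCP controls), then fixed and immunostained for PINK1 plus nuclear and cell stains; PINK1 immunofluorescence quantified by laser-scanning microplate cytometry.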
# uPA surface inh: cell surface uPA generation inhibition; cell surface uPA generation assay, qHTS; Potency, µM (top dose mostly 38.3 µM), usual class: inhibitors; 330,000 tested, 0.31% active; AID 540303; active = well fitted inhibition curve with a large enough effect; inconclusive = small, poorly fitted or top-dose-only effect; inactive = no such curve, though single readings can be large or run the other way; tested in mouse RAW 264.7 cells; note: nearly all actives have a fitted effect of over 55% in size
# Epigenetic reg: epigenetic control regulation, reporter derepression; murine LDR cells, GFP reporter derepression, 30 h; Potency, µM (titrated, usually from 53.9 µM), usual class: activators; 280,000 tested, 0.2% active; note: nearly all actives have a fitted effect of over 60% in size
#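 Murine LDR cells carrying a silenced, genomically integrated CMV-driven GFP reporter were exposed to compound for 30 hours at 37 C. After PBS washes, GFP-positive cells (20–120 um objects) were counted by laser-scanning microplate cytometry.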
# IL2 activator: activates IL-2 in a cell-based reporter assay | IL-2 activation reporter assay, cell-based qHTS; stimulated with anti-CD3/CD4/CD28 beads; in transgenic mouse T cells | activation, % (series mostly up to about 46 µM) | 360,000 tested, 0.065% active | AID 652025; in the data active = activation above about 50%; inconclusive = mostly about 30% to 49%
#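 Readout is EGFP and DsRed signal by fluorescent plate cytometry after 18 h at 37 degrees C. Transgenic mouse T cells (750/well) received compound for 60 min before bead stimulation (anti-CD3, anti-CD4, anti-CD28); memory T cells served as non-tolerant control.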
# miR-21 reporter: miR-21 reporter, rising signal. 340,000 tested, under 10 active. Potency, µM (highest dose often 38.3 µM). HeLa miR-21 FLuc reporter, luciferase, 48 h. AID 2288; active = well fitted rising curve with a large enough effect; inconclusive = small, poorly fitted or top-dose-only effect; inactive = no such curve, though single readings can be large or run the other way;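 further: miR-21 action dims this reporter so a rising signal means less miR-21 action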
#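 Using DMEM plus 10% FBS, HeLa miR-21-FLuc cells are incubated with test compounds (final up to about 40uM) for 48 hours; firefly luciferase signal is then imaged following reagent-mediated lysis.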
# p53 reactivation: restores transcriptional activity of mutant p53; Potency, µM (highest dose often 92.2 µM), usual class: activators; AID 504706; 320,000 tested, 0.063% active; H1299 p53-A138V BP100-luciferase reporter, luminescence, 24 h; note: nearly all actives have a fitted effect of over 45% in size
#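 H1299 (p53-null), stable ts p53-A138V + BP100-Luc; 1000 cells/well, Opti-MEM/10% FBS; cpd 4 pt, 1:5; 24 h, 37 deg C, 5% CO2; detection reagent 10 min RT; luminescence.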
# A number is an active result; – = inactive; ? = inconclusive; · = no result given. This is a sample that favours compounds with a hit; in the whole collection about 0.62% have one here. Unless noted, calls come from the whole dose curve; as a rule, active = well fitted curve in the direction sought with a large enough effect; inconclusive = small, poorly fitted or top-dose-only effect, or another doubt; inactive = no such curve, though single readings can be large; an effect the other way counts as inactive or inconclusive.
SMILES,PINK1 expr mod,uPA surface inh,Epigenetic reg,IL2 activator,miR-21 reporter,p53 reactivation
Oc1ccc(-c2cnc(-c3ccc(O)cc3)nc2)cc1,–,–,·,–,–,14.1µM
Nc1ccc(-c2cnc(-c3ccc(N)cc3)nc2)cc1,–,–,–,–,–,–
Cc1nc([N+](=O)[O-])c(Br)n1Cc1ccccc1,–,10µM,–,–,–,–
CC(C)N(C(=O)[C@H]1C[C@H](CC(=O)NCC23CC4CC(CC(C4)C2)C3)C(=O)N2CCc3c([nH]c4ccc(Cl)cc34)[C@]12C)C(C)C,35.5µM,?,·,–,·,–
CSCC[C@H](C=O)NC(=O)[C@H](CC(C)C)NC(=O)[C@H](CC(C)C)NC(C)=O,·,·,–,·,·,·
CCCC[C@@H](C=O)NC(=O)[C@H](CC(C)C)NC(=O)[C@H](CC(C)C)NC(C)=O,·,·,11.2µM,·,·,·
COc1cccc(C(=O)Oc2ccccc2/C=C\C(=O)c2cc3ccccc3o2)c1,–,8.91µM,–,–,–,?
COCCNC(=O)c1cc(-c2ccc3c(c2)OCO3)on1,–,–,–,–,–,20µM
COCCNC(=O)COCc1cc(-c2ccc3c(c2)OCO3)on1,–,–,·,–,–,–
O=C(NCc1ccccn1)c1cnn(-c2ncc3c(n2)-c2ccccc2CC3)c1C1CC1,–,·,·,·,·,·
Oc1ccc(/C=N/Nc2ccc(C(F)(F)F)cn2)c(O)c1,·,·,·,·,–,11.2µM
COC(=O)c1[nH]c2cc(OC)c(OC)cc2c1/C=N/Nc1ccccc1,–,–,·,531.6,–,–
COc1cc2c(cc1OC)C(C)N(C(=O)c1cc(C)on1)CC2 (stereo not drawn),?,–,·,–,–,–
COc1cc2c(cc1OC)C(C)N(C(=O)c1c(C)noc1C)CC2 (stereo not drawn),–,5.01µM,–,–,–,–
CC(C)OC(=O)c1c(-c2ccccc2)c(-c2ccccc2)nn(C)c1=O,–,·,–,·,11.7µM,·
O=C(CSc1nc2ccccc2c(=O)n1Cc1ccccc1)NCc1ccco1,5.62µM,–,–,–,–,–
CCCn1c(C)cc(C(=O)CSc2nc3ccccc3c(=O)n2Cc2ccco2)c1C,–,–,–,–,–,25.1µM
Cc1cc(C(=O)CCl)c(C)n1Cc1ccco1,?,–,12.6µM,–,–,–
CCN(CC)C(=O)CSc1nc2ccccc2c(=O)n1Cc1ccco1,–,·,–,·,–,·
Cn1cc(CN2CCOc3ccc(C(O)C4CCCCC4)cc3C2)cn1 (stereo not drawn),–,·,·,·,·,·
COc1cccc(C2CC(=O)Nc3cc(OC)c(OC)cc32)c1 (stereo not drawn),–,–,·,–,–,–
COc1cccc(C2CC(=O)Nc3cc4c(cc32)CCC4)c1 (stereo not drawn),–,11.2µM,–,–,?,–
CCn1c(O)c(N=NC(=O)CNC(=O)c2ccco2)c2ccccc21,–,?,–,–,–,–
C=CCn1c(O)c(N=NC(=O)CNC(=O)c2ccco2)c2ccccc21,–,10µM,–,–,–,–
COCCN1CCN(C(=O)c2cnn(-c3nccc(-c4cc5ccccc5o4)n3)c2C2CC2)CC1,–,·,·,·,·,·
SMILES,PINK1 expr mod,uPA surface inh,Epigenetic reg,IL2 activator,miR-21 reporter,p53 reactivation
COc1ccc(-n2c(O)c(C=Nc3ccccc3)c3ccccc3c2=O)cc1,–,–,–,–,–,–
CCN(c1ccc(N=Cc2c(O)n(Cc3ccc(OC)cc3)c(=O)c3ccccc23)cc1)C(C)C,–,–,2µM,–,–,–
CCOC(=O)CSc1nc2ccc(NC(=O)c3ccc(Cl)cc3)cc2s1,–,·,–,·,–,·
CCOC(=O)Nc1ccc2nc(Sc3ccc(Cl)cc3)sc2c1,–,1.58µM,–,–,–,–
Cc1nn(C)c(Cl)c1CN1CCOc2ccc(CN3CCC(Oc4cccnc4)CC3)cc2C1,–,·,·,·,·,·
CCCCOc1ccc(C(=O)Nc2ccc(OCC(=O)N3CCOCC3)cc2)cc1,–,7.08µM,·,–,–,–
CCN(CC)S(=O)(=O)c1ccc(C(=O)Nc2ccc(OCC(=O)N3CCOCC3)cc2)cc1,–,–,–,–,–,–
COc1ccc(-c2cc(C(=O)c3c(N)n(C)c(=O)n(C)c3=O)c3ccccc3n2)cc1,–,1.41µM,–,–,–,–

# Screening data as filed in PubChem BioAssay.
